For the test, the target named is human Y4 receptor (human) (UniProt P50391). Description: cell-based or functional assay.

By UniProt entry, the sequences of proteins in these tests, tags left out. Where a name states a change or a piece, a line headed by the entry shows the natural chain unless it says otherwise.
UniProt P50391: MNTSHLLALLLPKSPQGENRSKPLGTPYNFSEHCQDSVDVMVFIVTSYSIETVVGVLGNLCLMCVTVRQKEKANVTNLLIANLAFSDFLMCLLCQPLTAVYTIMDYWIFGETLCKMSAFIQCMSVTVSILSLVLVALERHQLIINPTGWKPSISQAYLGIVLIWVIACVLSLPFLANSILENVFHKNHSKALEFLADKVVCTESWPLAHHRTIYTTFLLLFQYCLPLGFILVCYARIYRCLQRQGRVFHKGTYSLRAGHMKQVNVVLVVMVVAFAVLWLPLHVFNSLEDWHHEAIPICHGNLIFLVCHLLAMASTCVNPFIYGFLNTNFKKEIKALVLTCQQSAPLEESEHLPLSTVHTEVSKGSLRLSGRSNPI

One substance from patent US20200385439A1 can be followed below.

Take “PYY3-36 (from UniProt P10082 31-64) (peptide)”: the EC50, cAMP assay (LANCE) on receptor-expressing cells amounted to 137 nM.
